Where two headings read alike, the source gives them in different places.
Assays:
OX2 = molecular target: T1, OX2 (Homo sapiens, UniProt O43614); experiment: Orexin receptor cell-based functional assay: [Ca2+]i by FLIPR in CHO-OX2 cells, antagonism of EC90 of OXA
T1 construct: expressed in transfected cells; host or cells: CHO (CHO-OX2, kept under G418 or Blasticidin selection)

Amino acid sequences for entries named in this document (tags omitted).
UniProt O43614, whole entry: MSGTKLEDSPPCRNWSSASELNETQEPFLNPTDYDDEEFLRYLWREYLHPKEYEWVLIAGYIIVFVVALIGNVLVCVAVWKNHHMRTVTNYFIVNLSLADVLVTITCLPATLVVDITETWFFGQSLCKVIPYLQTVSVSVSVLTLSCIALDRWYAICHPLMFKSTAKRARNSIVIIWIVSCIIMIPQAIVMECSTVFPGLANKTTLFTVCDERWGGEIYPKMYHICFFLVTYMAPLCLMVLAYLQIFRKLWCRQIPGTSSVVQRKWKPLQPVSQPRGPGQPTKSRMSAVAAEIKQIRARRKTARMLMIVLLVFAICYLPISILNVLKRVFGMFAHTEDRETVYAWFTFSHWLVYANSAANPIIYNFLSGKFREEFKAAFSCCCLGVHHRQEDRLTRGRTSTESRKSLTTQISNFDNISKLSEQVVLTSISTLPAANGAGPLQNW
UniProt O43613, whole entry: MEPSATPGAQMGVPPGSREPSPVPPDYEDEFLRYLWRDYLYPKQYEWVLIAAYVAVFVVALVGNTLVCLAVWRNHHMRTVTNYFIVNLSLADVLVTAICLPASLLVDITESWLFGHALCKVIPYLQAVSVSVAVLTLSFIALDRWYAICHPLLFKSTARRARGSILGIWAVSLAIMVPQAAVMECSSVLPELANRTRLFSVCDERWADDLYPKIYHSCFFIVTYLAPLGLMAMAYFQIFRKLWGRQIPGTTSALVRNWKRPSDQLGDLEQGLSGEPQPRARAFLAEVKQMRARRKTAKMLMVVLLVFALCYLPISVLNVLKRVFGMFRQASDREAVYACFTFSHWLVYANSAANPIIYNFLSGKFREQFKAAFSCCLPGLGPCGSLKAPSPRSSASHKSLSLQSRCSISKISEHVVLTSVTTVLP

OX1 = molecular target: T2, OX1 (Homo sapiens, UniProt O43613); experiment: Orexin receptor cell-based functional assay: [Ca2+]i by FLIPR in CHO-OX1 cells, antagonism of EC90 of OXA
T2 construct: expressed in transfected cells; host or cells: CHO (CHO-OX1, kept under G418 or Blasticidin selection)

[1] = Table 2, IC50 bioactivity, CHO-OX2 cells, FLIPR, read-out: OX2
[2] = Table 2A, bioactivity with respect to OX2, CHO-OX2 cells, FLIPR, read-out: OX2

Row | SMILES | IC50 (OX2; [1]) | IC50 (OX2; [2]) | other results
1 | Cc1nc(-c2ccccc2)c(C(=O)N2CC(N)CCC2CNC(=O)c2cccc3cccnc23)s1 (racemic) [Example 44, rac-N-((5-amino-1-(2-methyl-4-phenylthiazole-5-carbonyl)piperidin-2-yl)methyl)quinoline-8-carboxamide] | 1000 nM |  | 
2 | CO[C@@H]1CCCN(C(=O)c2nc(C)sc2-c2ccc(F)cc2)[C@@H]1CNc1nc2ccccc2s1 (racemic) [Example 94, rac-((2R,3R)-2-((benzo[d]thiazol-2-ylamino)methyl)-3-methoxypiperidin-1-yl)(5-(4-fluorophenyl)-2-methylthiazol-4-yl)methanone] | 1000 nM |  | 
3 | C[C@@H]1CCCN(C(=O)c2ccccc2OC(F)(F)F)[C@@H]1CNc1ncc(Cl)cn1 (racemic) [Example 122, rac-((2S,3R)-2-(((5-chloropyrimidin-2-yl)amino)methyl)-3-methylpiperidin-1-yl)(2-(trifluoromethoxy)phenyl)methanone] | 5000 nM |  | 
4 | O=C(NC[C@@H]1C[C@@H](O)CN1C(=O)c1ccccc1-c1ccccc1)c1cccc2cccnc12 [Example 4, N-(((2S,4R)-1-(Biphenylcarbonyl)-4-hydroxypyrrolidin-2-yl)methyl)quinoline-8-carboxamide] | 1000 nM |  | 
5 | Cc1ccc(-n2nccn2)c(C(=O)N2CCC[C@@H](C)[C@H]2CNc2nnc(C(F)(F)F)s2)c1 [Example A102, ((2S,3R)-3-Methyl-2-(((5-(trifluoromethyl)-1,3,4-thiadiazol-2-yl)amino)methyl)piperidin-1-yl)(5-methyl-2-(2H-1,2,3-triazol-2-yl)phenyl)methanone] |  | > 5000 nM | 
6 | Cc1ccc(-c2ccccn2)c(C(=O)N2CCC[C@@H](C)[C@H]2CNc2ccc(C(F)(F)F)nn2)c1 [Example A150, ((2S,3R)-3-Methyl-2-(((6-(trifluoromethyl)pyridazin-3-yl)amino)methyl)piperidin-1-yl)(5-methyl-2-(pyridin-2-yl)phenyl)methanone] |  | 4000 nM | 
7 | Cc1ccc(-c2ccccn2)c(C(=O)N2CCC[C@@H](C)[C@H]2CNc2ncc(C(F)(F)F)cn2)c1 [Example A152, ((2S,3R)-3-Methyl-2-(((5-(trifluoromethyl)pyrimidin-2-yl)amino)methyl)piperidin-1-yl)(5-methyl-2-(pyridin-2-yl)phenyl)methanone] |  | 2000 nM | 
8 | Cc1ccc(-c2ncccn2)c(C(=O)N2CCC[C@@H](C)[C@H]2CNc2ncc(F)cc2F)c1 [Example A182, ((2S,3R)-2-(((3,5-Difluoropyridin-2-yl)amino)methyl)-3-methylpiperidin-1-yl)(5-methyl-2-(pyrimidin-2-yl)phenyl)methanone] |  | 4000 nM | 
9 | Cc1ccc(-c2ncccn2)c(C(=O)N2CCC[C@@H](C)[C@H]2CNc2ccc(C(F)(F)F)cn2)n1 [Example A183, ((2S,3R)-3-Methyl-2-(((5-(trifluoromethyl)pyridin-2-yl)amino)methyl)piperidin-1-yl)(6-methyl-3-(pyrimidin-2-yl)pyridin-2-yl)methanone] |  | 4000 nM | 
10 | C[C@@H]1CCCN(C(=O)c2cc(Cl)ccc2-c2ncccn2)[C@@H]1CNc1ncc(C(F)(F)F)cn1 [Example A201, (5-Chloro-2-(pyrimidin-2-yl)phenyl)((2S,3R)-3-methyl-2-(((5-(trifluoromethyl)pyrimidin-2-yl)amino)methyl)piperidin-1-yl)methanone] |  |  | selectivity for OX1 over OX2 (OX1; relative to Examples 112 and 114 (Table 4)): improved selectivity for OX1 over OX2
11 | Cc1nc(C(=O)N2CCCC(C)(C)C2CNc2ncc(C(F)(F)F)cn2)c(-c2ccc(F)cc2)s1 (centres unmarked) [SR-12364, reference compound] |  |  | IC50 (OX2; Table 5, read-out: OX2 IC50): 2640 nM
12 | Cc1nc(C(=O)N2CCCC(C)(C)C2CNc2ncc(C(F)(F)F)cn2)c(-c2ccc(F)cc2)s1 (centres unmarked) [SR-12365, reference compound] |  |  | selectivity ratio (OX1/OX2 selectivity) (OX1; OX1 over OX2, from the IC50 values of Table 5): approximately 20
13 | Cc1nc(C(=O)N2CCCCC2CNc2ncc(C(F)(F)F)cn2)c(-c2ccc(F)cc2)s1 (centres unmarked) [SR-12376, reference compound] |  |  | IC50 (OX2; Table 5, read-out: OX2 IC50): 70 nM; selectivity for OX1 (OX1; OX1 over OX2, cell-based functional assay): approximately five

Reference: US9499517B2, “Substituted prolines / piperidines as orexin receptor antagonists” (Eolas Therapeutics, Inc., priority 2012, dated 2016)
